From ChEMBL document CHEMBL1132223, “Quantitative structure-activity relationship of human neutrophil collagenase (MMP-8) inhibitors using comparative molecular field analysis and X-ray structure analysis” (J Med Chem, 1999)

The chains behind the UniProt entries cited, without tags or fusion partners. Where a name states a change or a piece, a line headed by the entry shows the natural chain unless it says otherwise.
UniProt P22894: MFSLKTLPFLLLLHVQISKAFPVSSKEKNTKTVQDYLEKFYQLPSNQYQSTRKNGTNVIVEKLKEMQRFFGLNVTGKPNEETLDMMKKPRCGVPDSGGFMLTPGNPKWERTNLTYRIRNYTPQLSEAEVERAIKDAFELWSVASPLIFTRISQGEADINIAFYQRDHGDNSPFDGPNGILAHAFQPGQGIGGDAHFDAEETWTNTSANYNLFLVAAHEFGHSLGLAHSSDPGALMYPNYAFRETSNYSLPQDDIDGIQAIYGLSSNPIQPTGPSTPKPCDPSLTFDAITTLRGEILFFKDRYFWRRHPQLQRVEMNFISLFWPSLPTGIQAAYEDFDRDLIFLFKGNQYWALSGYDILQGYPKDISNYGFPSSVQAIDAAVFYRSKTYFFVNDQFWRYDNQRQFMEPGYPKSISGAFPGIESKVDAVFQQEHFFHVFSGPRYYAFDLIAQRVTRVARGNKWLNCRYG

What follows are molecules tested against Neutrophil collagenase (Homo sapiens, UniProt P22894) (assay: Inhibition of human neutrophil collagenase [Matrix Metalloprotease-8, MMP-8]).

`O=C(NO)[C@H]1Cc2ccccc2CN1S(=O)(=O)c1ccccc1` and `O=C(NO)[C@H]1Cc2ccccc2CN1S(=O)(=O)CCc1ccccc1` are the same in IC50: 20 nM for the first, 20 nM for the second.

With `CCOC(=O)Nc1cccc(S(=O)(=O)N2Cc3ccccc3C[C@@H]2C(=O)NO)c1` the IC50 was 300 nM.
